The record followed here is US10961200B2, “Small molecule inhibitors of lactate dehydrogenase and methods of use thereof” (THE UNITED STATES OF AMERICA, AS REPRESENTED BY THE …, priority 2014, dated 2021).

The test has as its system MiaPaCa2 cells. The test is described as follows: cell-based HT lactate assay, colorimetric/fluorometric detection (inhibition of lactate production). The following applies: read-out: Lactate activity (inhibition of lactate production); class symbols, 0 to 3 pluses. On the procedure: Cell-based HT Lactate assay is a miniaturized Biovision Lactate Colorimetric/Fluorometric Assay Kit (Cat #K607-100). The assay is roughly a 3.5 hour assay run in a 1536 plate format. Cell number optimization should be run for each cell line to achieve an optimal number in which lactate production equals roughly 90% of the standard curve range. Cell number per well optimization has been performed with the following cell lines: MiaPaCa2—500 cells/well, SNU398—500 cells/well, and P493—500 cells/well.
The lactate activity in Table 8 is represented by 0 to 3 pluses as follows: +++<1 μM; ++1-10 μM; +10-57 μM; and −>57 μM.

SMILES strings stand for the structures.

In the case of `NS(=O)(=O)c1ccc(Cc2c(-c3ccc(F)c(-c4cnoc4)c3)nn(-c3nc(C(=O)O)cs3)c2CC2CC2)cc1F`, the IC50 is 1000 to 10000 nM.

For `CC#Cc1cc(-c2nn(-c3nc(C(=O)O)cs3)c(CC3CC3)c2Cc2ccc(S(N)(=O)=O)c(F)c2)ccc1F`, the IC50 is < 1000 nM.
